# From PMC11272584 (Nature Metabolism, 2024)
# Experiments:
# GIPR L13F = target: T1, GIPR L13F (Homo sapiens, UniProt P48546); conditions: GIPR L13F (ECD), mean, n = 5, duplicate
# T1 sequence (P48546 22-466): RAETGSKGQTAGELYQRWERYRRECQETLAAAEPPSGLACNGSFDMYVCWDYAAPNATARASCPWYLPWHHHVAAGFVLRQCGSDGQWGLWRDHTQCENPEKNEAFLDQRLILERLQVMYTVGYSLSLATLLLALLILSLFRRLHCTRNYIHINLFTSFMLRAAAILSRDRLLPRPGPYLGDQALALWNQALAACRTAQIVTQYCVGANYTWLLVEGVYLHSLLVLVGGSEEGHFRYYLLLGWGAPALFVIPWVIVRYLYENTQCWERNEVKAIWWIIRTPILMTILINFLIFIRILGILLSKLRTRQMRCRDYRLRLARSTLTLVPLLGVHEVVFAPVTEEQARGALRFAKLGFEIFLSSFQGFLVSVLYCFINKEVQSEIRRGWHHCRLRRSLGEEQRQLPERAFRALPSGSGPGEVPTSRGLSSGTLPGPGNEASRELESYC
# GIPR E291K = target: T2, GIPR E291K (Homo sapiens, UniProt P48546, E291K); conditions: GIPR E291K (ECL2), mean, n = 3, duplicate
# T2 sequence (P48546 22-466 E291K): T1 sequence (P48546 22-466) with E270K
# GIPR S382T = target: T3, GIPR S382T (Homo sapiens, UniProt P48546, S382T); conditions: GIPR S382T (7.47), mean, n = 3, duplicate
# T3 sequence (P48546 22-466 S382T): T1 sequence (P48546 22-466) with S361T
# GIPR R38L = target: T4, GIPR R38L (Homo sapiens, UniProt P48546, R38L); experiment: cAMP accumulation; assay type: cell-based; set-up: host or cells: HEK293
# T4 sequence (P48546 22-466 R38L): T1 sequence (P48546 22-466) with R17L
# GIPR E463Q = target: T5, GIPR E463Q (Homo sapiens, UniProt P48546, E463Q); experiment: cAMP accumulation; assay type: cell-based; set-up: host or cells: HEK293
# T5 sequence (P48546 22-466 E463Q): T1 sequence (P48546 22-466) with E442Q
substance,measurement,setting,value
glucose-dependent insulinotropic polypeptide [GIP],logEC50 (Arrestin),GIPR L13F; Hill slope 1.0,-8.7
same,Arrestin (Emax),GIPR L13F; normalized to WT GIPR,68
same,logEC50 (Arrestin),GIPR E291K; Hill slope 1.0,-8.5
same,Arrestin (Emax),GIPR E291K; normalized to WT GIPR,20
same,logEC50 (Arrestin),GIPR S382T; Hill slope 1.0,-9.4
same,Arrestin (Emax),GIPR S382T; normalized to WT GIPR,6
same,cAMP (Emax),"GIPR R38L; HEK293, GIP(1–42) 1 pM–100 nM, 30 min 37 °C, mean of n = 4",100 % of WT GIPR activity
same,logEC50 (cAMP),"GIPR R38L; HEK293, Hill slope 1.0, mean of n = 4",-10.9
same,cAMP (Emax),"GIPR E463Q; HEK293, GIP(1–42) 1 pM–100 nM, 30 min 37 °C, mean of n = 3",95 % of WT GIPR activity
same,logEC50 (cAMP),"GIPR E463Q; HEK293, Hill slope 1.0, mean of n = 3",-11.2

# Changes are numbered by the printed parent chain.
